PubChem BioAssay (NCI)
“And” between values parts separate entries of the source, which are not always exact repeats. Identical values can stand only once. The entries are a selection whose mix differs from that of the whole data set. Where a structure was tested more than once in an assay, its records may differ in their call. The source made the active and inactive calls. No stated cut-off is given here; in the data, active means growth inhibition above about 70%; inactive means the rest.

Key:
[1] = NCI Yeast Anticancer Drug Screen. Data for the rad50 strain (AID 155);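 further: 0% = growth of vehicle-only cultures of the same strain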; conditions: S. cerevisiae rad50 strain growth inhibition, stronger effect = higher value
[2] = NCI Yeast Anticancer Drug Screen. Data for the mec2-1 strain (AID 157); conditions: S. cerevisiae mec2-1 strain, stronger effect = higher value
[3] = NCI Yeast Anticancer Drug Screen. Data for the sgs1 mgt1 strain (AID 161);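 further: 0% = growth of cultures given vehicle only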; conditions: S. cerevisiae sgs1 mgt1 strain, stronger effect = higher value
[4] = NCI Yeast Anticancer Drug Screen. Data for the cln2 rad14 strain (AID 165);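 further: 0% = growth equal to vehicle treated cultures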; conditions: S. cerevisiae cln2 rad14 strain, stronger effect = higher value
[5] = NCI Yeast Anticancer Drug Screen. Data for the bub3 strain (AID 167); conditions: S. cerevisiae bub3 mutant strain, stronger effect = higher value
[6] = NCI Yeast Anticancer Drug Screen. Data for the mlh1 rad18 strain (AID 175); conditions: S. cerevisiae mlh1 rad18 strain growth inhibition, stronger effect = higher value
[7] = at 5.0 µM (retest, dose inferred, filed as 0.5)
[8] = at 50.0 µM (retest, dose inferred, filed as 5.0)

SMILES | growth inhibition [1, 7] | growth inhibition [1, 8] | growth inhibition ([1]; at 50.0 µM) | growth inhibition [2, 7] | growth inhibition [2, 8] | growth inhibition ([2]; at 50.0 µM) | growth inhibition [3, 7] | growth inhibition [3, 8] | growth inhibition ([3]; at 50.0 µM) | growth inhibition [4, 8] | growth inhibition ([4]; at 50.0 µM) | growth inhibition [5, 7] | growth inhibition [5, 8] | growth inhibition ([5]; at 50.0 µM) | growth inhibition [6, 7] | growth inhibition [6, 8] | growth inhibition ([6]; at 50.0 µM) | growth inhibition [4, 7]
Cc1cccc2ccc3ccccc3c12.O=C1c2cc([N+](=O)[O-])ccc2-c2c1cc([N+](=O)[O-])cc2[N+](=O)[O-] | inactive: 7% | inactive: 31% | inactive: 60.4% | inactive: 8% | inactive: 21% | inactive: 7.2% | inactive: 2% | inactive: 45% | inactive: 26.7% | inactive: 5% | inactive: 11.3% | inactive: 4% | inactive: 23% | inactive: 65.1% | inactive: 18% | inactive: 44% | active: 75.5% | –
COc1ccc2nccc(C=O)c2c1.O=[N+]([O-])c1cc([N+](=O)[O-])c(O)c([N+](=O)[O-])c1 | inactive: -1% | inactive: 33% | inactive: 53.5% | inactive: -3% | inactive: 30% | inactive: 29.2% | inactive: 3% | inactive: 26% | inactive: 69.4% | inactive: 19% | inactive: 24.2% | inactive: -3% | inactive: 14% | inactive: 13.3% | inactive: 22% | inactive: 62% | inactive: 61.9% | inactive: -2%
O=[N+]([O-])c1ccc(Sc2ccc([N+](=O)[O-])cc2[N+](=O)[O-])c([N+](=O)[O-])c1 | inactive: 45% | active: 98% | active: 91.1% | inactive: 46% | active: 100% | active: 93.8% | inactive: 55% | active: 99% | active: 93.9% | active: 98% | active: 91.4% | inactive: 51% | active: 99% | active: 91.7% | active: 74% | active: 99% | active: 90.7% | inactive: 42%
CC(COC(=S)OCC(C)([N+](=O)[O-])[N+](=O)[O-])([N+](=O)[O-])[N+](=O)[O-] | inactive: 2% | inactive: 53% | inactive: 34.9% | inactive: 3% | inactive: 64% | inactive: 21.6% | inactive: 24% | active: 85% | inactive: 45.9% | inactive: 45% | inactive: 34.8% | inactive: -3% | active: 92% | inactive: 13.4% | inactive: 5% | active: 92% | active: 71.3% | inactive: 9%
O=[N+]([O-])c1cc([N+](=O)[O-])c2nonc2c1 | inactive: 11% | active: 99% | inactive: 48.5% | inactive: 0% | active: 99% | inactive: 48% | inactive: 9% | active: 97% | inactive: 61.4% | active: 97% | inactive: 9.7% | inactive: -14% | active: 99% | inactive: 54% | inactive: 8% | active: 99% | active: 80.8% | inactive: -8%
Cc1ccc(S[S+](C)c2ccc(C)cc2)cc1.O=[N+]([O-])c1cc([N+](=O)[O-])c(S(=O)(=O)[O-])c([N+](=O)[O-])c1 | inactive: 4% | inactive: 25% | inactive: 39% | inactive: 20% | inactive: 44% | inactive: 15.9% | inactive: -8% | inactive: 44% | inactive: 63.8% | inactive: 21% | inactive: 38.6% | inactive: 10% | inactive: 44% | inactive: 46.6% | inactive: 27% | inactive: 46% | inactive: 26.1% | inactive: -6%
CCCC[S+]1C2CCCCCCC21.O=[N+]([O-])c1cc([N+](=O)[O-])c(S(=O)(=O)[O-])c([N+](=O)[O-])c1 | inactive: 2% | inactive: 29% | inactive: 46.4% | inactive: 9% | inactive: 63% | inactive: 27.9% | inactive: -4% | inactive: 44% | inactive: 64.5% | inactive: 26% | inactive: 45.8% | inactive: 6% | inactive: 43% | inactive: 56% | inactive: 21% | inactive: 56% | inactive: 41.1% | inactive: -13%
[N-]=[N+]=Nc1c([N+](=O)[O-])cc([N+](=O)[O-])cc1[N+](=O)[O-] | inactive: 3% | active: 94% | active: 96.5% | inactive: -8% | active: 95% | inactive: 29.4% | inactive: 10% | active: 96% | active: 93.5% | active: 82% | inactive: 35.8% | inactive: 5% | active: 94% | active: 71.3% | inactive: 32% | active: 98% | active: 96.8% | inactive: -2%
C1CN1.NC(Cc1cnc[nH]1)C(=O)O.Nc1ncnc2nc[nH]c12 (stereo not drawn) | – | inactive: 33% | – | inactive: -3% | inactive: 5% | active: 97.8% | – | inactive: 11% | – | inactive: 7% | active: 98.8% | – | inactive: 10% | active: 97.8% | – | inactive: 21% | active: 98.5% | –
O=[N+]([O-])OCC1CO1 (stereo not drawn) | inactive: 2% | inactive: 2% | inactive: -10.8% | inactive: 4% | inactive: 2% | inactive: -1.1% | inactive: 3% | inactive: 3% | inactive: -12.1% | inactive: 0% | inactive: 31.1% | inactive: -1% | inactive: -3% | inactive: 13% | inactive: -2% | inactive: -4% | inactive: -0.55% | inactive: 2%
Cc1c([N+](=O)[O-])cc([N+](=O)[O-])c(Br)c1[N+](=O)[O-] | active: 95% | active: 99% | – | inactive: 57% | active: 100% | – | active: 88% | active: 99% | – | active: 99% | – | active: 79% | active: 100% | – | inactive: 62% | active: 99% | – | inactive: 45%
Cc1cccc2cc3ccc4ccccc4c3cc12.O=C1c2cc([N+](=O)[O-])ccc2-c2c1cc([N+](=O)[O-])cc2[N+](=O)[O-] | inactive: 5% | inactive: 46% | inactive: 9.15% | inactive: 6% | inactive: 35% | inactive: 20.7% | inactive: 3% | inactive: 43% | inactive: 27.5% | inactive: -1% | inactive: -6.6% | inactive: 0% | – | inactive: 51.9% | inactive: 11% | inactive: 46% | inactive: 34% | inactive: 0%
CCCOCC(C#N)(c1ccccc1)N(C)C(N)=O.O=[N+]([O-])c1cc([N+](=O)[O-])c(O)c([N+](=O)[O-])c1 (stereo not drawn) | inactive: -2% | inactive: 3% | inactive: 11.4% | inactive: 1% | inactive: 1% | inactive: 7% | inactive: -3% | inactive: 6% | inactive: -6.05% | inactive: 8% | active: 71.3% | inactive: 2% | inactive: 1% | active: 94.2% | inactive: 2% | inactive: 4% | inactive: 8.6% | inactive: 4%
CC(C)OP(C)(=O)O | inactive: -2% | inactive: 5% | inactive: 5.3% [middle of 5 runs] | inactive: -2% | inactive: 2% | inactive: -0.05% [middle of 5 runs] | inactive: -2% | inactive: -2% | inactive: 2.8% [middle of 5 runs] | inactive: 5% | – | inactive: 6% | inactive: 8% | – | inactive: -20% | inactive: -3% | inactive: 1.25% [middle of 5 runs] | inactive: 0%
O=C(OCCN1CCCCC1)C(O)(c1ccccc1)c1ccc(-c2ccccc2)cc1 (stereo not drawn) | inactive: -6% | inactive: 25% | active: 99% | inactive: 15% | inactive: 47% | active: 99.5% | inactive: -12% | inactive: 62% | active: 99.6% | inactive: 19% | active: 93.8% | inactive: -7% | inactive: 25% | active: 98.9% | inactive: 16% | inactive: 64% | active: 99.5% | inactive: -5%
C1CN1.NC(Cc1cnc[nH]1)C(=O)O (stereo not drawn) | – | active: 99% and inactive: 2% and inactive: -2% | – | inactive: 7% and inactive: -23% and inactive: -24% | active: 99% and inactive: 4% and inactive: 1% | – | – | active: 99% and inactive: 5% and inactive: 3% | – | active: 99% and inactive: 2% and inactive: -3% | – | – | active: 98% and inactive: -5% and inactive: -8% | – | – | active: 99% and inactive: 6% and inactive: 1% | – | –
N=P(c1ccccc1)(c1ccccc1)c1ccccc1.O=[N+]([O-])c1cc([N+](=O)[O-])c(O)c([N+](=O)[O-])c1 | – | – | inactive: 12.4% | – | – | inactive: -1.95% | – | – | inactive: 3.15% | – | inactive: -6.95% | – | – | inactive: -3.25% | – | – | inactive: 12% | –
CN1CCCC(=O)CC1.O=[N+]([O-])c1cc([N+](=O)[O-])c(O)c([N+](=O)[O-])c1 | – | – | inactive: -2.15% | – | – | inactive: -10.2% | – | – | inactive: 31.6% | – | inactive: -8.5% | – | – | inactive: 15.8% | – | – | inactive: -10.7% | –
CN1CCC(O)(c2ccccc2)CC1.O=[N+]([O-])c1cc([N+](=O)[O-])c(O)c([N+](=O)[O-])c1 | – | – | inactive: 40.1% | – | – | inactive: 17.7% | – | – | inactive: 3.35% | – | inactive: 5.9% | – | – | inactive: -1.45% | – | – | inactive: 37.8% | –
